Our source for the EC50 of the loss of synaptophysin (ELISA) in mouse cortical neurons incubated 24 hours with Aβ1-42 premixed with αSN (2:1); Aβ1-42 alone 50 nM values is article PMC3017026.

The test concerns the target amyloid-β 1-42 synthetic peptide.

Substance “recombinant human α-synuclein (from UniProt P37840 1-140) (natural protein)” yielded an EC50 of the loss of synaptophysin (ELISA) in mouse cortical neurons incubated 24 hours with Aβ1-42 premixed with αSN (2:1); Aβ1-42 alone 50 nM of 5 nM.
